Experimental data as given in PMC12409883 (Journal of Medicinal Chemistry, 2025).

Assays:
BALBc/J mice [1] = experiment: In vivo ERG measurement of rod dark adaptation after photobleach, IP dosing; design: species or system mouse; settings: 10 mg/kg single IP, after 8 h of dark adaptation
BALBc/J mice [2] = experiment: In vivo scotopic ERG 2 h after photobleach, oral gavage dosing; design: species or system mouse; settings: 10 mg/kg oral gavage, photobleach after 30 min, 2 h in the dark
Abca4–/–Rdh8–/– mice = experiment: Photic retinal damage in Abca4–/–Rdh8–/– mice; format: in vivo, mouse; settings: 50 mg/kg oral versus 10 mg/kg IP

a- and b-wave amplitudes recovered, relative to the vehicle group (BALBc/J mice [1])	scotopic ERG b-wave amplitude relative to vehicle treatment (BALBc/J mice [2])	SMILES	efficacy of oral treatment on ONL thickness relative to the IP control (Abca4–/–Rdh8–/– mice)
~80%		CCC(CC)C(=O)Oc1cccc(C(O)CCN)c1.O=CO (stereo not drawn) [Compound 6, 3-(3-Amino-1-hydroxypropyl)phenyl 2-ethylbutanoate formate]	
	~50%	CCCC(CCC)C(=O)Oc1cccc(C(O)CCN)c1.O=CO (stereo not drawn) [Compound 7, 3-(3-Amino-1-hydroxypropyl)phenyl 2-propylpentanoate formate]	less than 50%
